Sequences of proteins named here, by UniProt entry; tags and fusion partners are left off. A change or cut given only in a name is not applied to a line headed by its entry.
UniProt B2RXH2: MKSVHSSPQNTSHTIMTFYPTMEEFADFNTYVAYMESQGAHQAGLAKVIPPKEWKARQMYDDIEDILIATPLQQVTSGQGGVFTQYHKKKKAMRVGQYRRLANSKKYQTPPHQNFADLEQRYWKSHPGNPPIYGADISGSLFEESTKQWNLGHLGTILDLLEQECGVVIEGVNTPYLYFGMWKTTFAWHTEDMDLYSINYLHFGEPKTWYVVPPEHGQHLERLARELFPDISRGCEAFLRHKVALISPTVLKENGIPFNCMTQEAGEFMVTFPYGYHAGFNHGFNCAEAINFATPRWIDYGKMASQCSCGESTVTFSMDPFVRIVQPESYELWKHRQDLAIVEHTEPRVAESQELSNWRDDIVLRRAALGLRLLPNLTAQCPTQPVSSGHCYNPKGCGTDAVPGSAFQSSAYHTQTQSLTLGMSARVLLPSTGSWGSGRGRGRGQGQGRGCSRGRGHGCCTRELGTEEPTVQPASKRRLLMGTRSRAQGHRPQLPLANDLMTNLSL

The entries are a selection whose mix differs from that of the whole data set. Results filed as inconclusive are left out. Active and inactive are the calls of the source. Calls follow the shape of the dose curve; as a rule, active = well fitted inhibition curve with a large enough effect (not every such curve was filed as active); inconclusive = small, poorly fitted or top-dose-only effect, or another doubt; inactive = no such curve, though single readings can be large or run the other way.
What follows are compounds tested against Lysine-specific demethylase 4E (Homo sapiens) (UniProt B2RXH2) (assay: qHTS Assay for Inhibitors of Human Jumonji Domain Containing 2E (JMJD2E)). Settings: JMJD2E catalytic domain, FDH-coupled NADH fluorescence (FDH is formaldehyde dehydrogenase); series mostly up to 57.1 µM; activity change, negative = inhibition: at the top concentration.
For `Oc1ccccc1CNc1ccccn1`, the “activity change, negative = inhibition” value was inactive: -12.7%. `Nc1cc(N)c2nonc2c1[N+](=O)[O-]` was tested, and the “activity change, negative = inhibition” value was inactive: -6.78%. For `CC(C)CC(=O)NC(Sc1ccc(Cl)cc1)C(Cl)(Cl)Cl` (centres undefined), the “activity change, negative = inhibition” value was inactive: 4.12%. `O=P(Nc1nc2ccc(Cl)cc2s1)(c1ccccc1)c1ccccc1` was tested, and the “activity change, negative = inhibition” value was inactive: 10.2%. With `CC(=O)Nc1ccc([As](=O)(O)O)cc1` the “activity change, negative = inhibition” value was inactive: -5.64%. `O=C(O)c1ccccc1[As](=O)(O)O` was tested, and the “activity change, negative = inhibition” value was inactive: 9.62%. With `CN(C(=O)Cc1ccc(Cl)c(Cl)c1)[C@H]1CCCC[C@@H]1N1CCCC1` the Potency was “inactive”. In the case of `CCOP(=O)(Nc1ccccc1)OCC`, the Potency is reported as “inactive”. In the case of `CCN(N=Nc1nonc1N)c1nonc1N`, the “activity change, negative = inhibition” value is reported as inactive: -1.53%. With `Cc1ccc(NP(=O)(Oc2cccc(C)c2)Oc2cccc(C)c2)nc1` the “activity change, negative = inhibition” value was inactive: -0.392%. With `CCOC(=O)NC(Sc1ccccc1)C(Cl)(Cl)Cl` (centres undefined) the “activity change, negative = inhibition” value was inactive: 7.59%. For `c1ccc(-c2nn[nH]n2)c(-c2nn[nH]n2)c1`, the “activity change, negative = inhibition” value was inactive: 1.52%. For `CCNC(=S)/N=C(\N)N[N+](=O)[O-]`, the “activity change, negative = inhibition” value was inactive: -1.99%. `O=C(NC1CCS(=O)(=O)C1)NP(=S)(Oc1ccccc1)Oc1ccccc1` (centres undefined) was tested, and the “activity change, negative = inhibition” value was inactive: -3.74%. In the case of `CCC(=O)N1C2C3N(C(=O)CC)C1C1N(C(=O)CC)C(C(N1C(=O)CC)N3C(=O)CC)N2C(=O)CC`, the “activity change, negative = inhibition” value is reported as inactive: 7.12%. With `CN(C(=O)Cc1ccc(Cl)c(Cl)c1)[C@@H]1CCCC[C@@H]1N1CCCC1` the “activity change, negative = inhibition” value was inactive: -7.08%. In the case of `CC(=O)NC(SC(=S)N(CC(C)C)CC(C)C)C(Cl)(Cl)Cl` (centres undefined), the “activity change, negative = inhibition” value is reported as inactive: 2.84%. For `Cc1ccc(OP(=O)(Nc2ccccn2)Oc2ccc(C)cc2)cc1`, the “activity change, negative = inhibition” value was inactive: -5.55%. In the case of `COC(=O)c1cc2c(s1)N=C(c1ccccc1)N(C)P2(=O)N1CCOCC1` (centres undefined), the “activity change, negative = inhibition” value is reported as inactive: -1.84%. For `O=c1c2cc([N+](=O)[O-])ccc2[nH]c2c([N+](=O)[O-])cc([N+](=O)[O-])cc12`, the “activity change, negative = inhibition” value was inactive: -4.32%. `CN(C)C(=O)Oc1noc2ccccc12` was tested, and the “activity change, negative = inhibition” value was inactive: 3.29%. With `O=P1(Nc2nc3ccc(Cl)cc3s2)COc2ccccc2O1` (centres undefined) the “activity change, negative = inhibition” value was inactive: 0.983%. With `CC(C)(C)C(=O)NC(Sc1ccccc1)C(Cl)(Cl)Cl` (centres undefined) the “activity change, negative = inhibition” value was inactive: -6.91%. With `C[C@H]1OP(=O)(Oc2ccccc2)C[C@@H]2O[C@@H]21` (some centres undefined) the “activity change, negative = inhibition” value was inactive: 15%. In the case of `C[C@@H]1C=CCP(=O)(Oc2ccccc2)O1` (some centres undefined), the “activity change, negative = inhibition” value is reported as inactive: -3.15%. In the case of `CC(=O)Nc1ccc(Oc2c([N+](=O)[O-])cc([N+](=O)[O-])cc2[N+](=O)[O-])cc1`, the “activity change, negative = inhibition” value is reported as inactive: -6.58%. `CC(=O)Nc1ccc([As](=O)(O)O)c(O)c1` was tested, and the “activity change, negative = inhibition” value was inactive: -11.3%. For `CC(C)C(=O)NC(Sc1ccccc1)C(Cl)(Cl)Cl` (centres undefined), the “activity change, negative = inhibition” value was inactive: 5.08%. `O=P(Nc1nccs1)(c1ccccc1)c1ccccc1` was tested, and the “activity change, negative = inhibition” value was inactive: 5.75%. In the case of `c1nnnn1CCn1cnnn1`, the “activity change, negative = inhibition” value is reported as inactive: 1.51%. With `O=P(Nc1ccccn1)(c1ccc(Br)cc1)c1ccc(Br)cc1` the “activity change, negative = inhibition” value was inactive: -4.91%. `C[C@H]1OP(=O)(Oc2ccccc2)[C@H](O)[C@H](O)[C@H]1N=[N+]=[N-]` (some centres undefined) was tested, and the “activity change, negative = inhibition” value was inactive: 6.28%. `O=P(Nc1nc2ccccc2s1)(c1ccccc1)c1ccccc1` was tested, and the “activity change, negative = inhibition” value was inactive: 5.42%. `O=[As](O)(c1ccccc1)c1ccc(O)cc1` was tested, and the “activity change, negative = inhibition” value was inactive: 0.257%. In the case of `CC(=O)NC(SC(=S)N(C)C)C(Cl)(Cl)Cl` (centres undefined), the “activity change, negative = inhibition” value is reported as inactive: -6.31%. With `O=[N+]([O-])c1ncn(CCn2cnc([N+](=O)[O-])n2)n1` the “activity change, negative = inhibition” value was inactive: 1.92%. With `O=C(OC1CN2CCC1CC2)c1cccc(Cl)c1` (centres undefined) the “activity change, negative = inhibition” value was inactive: 2.98%. For `C(Cc1nn[nH]n1)Cc1nn[nH]n1`, the “activity change, negative = inhibition” value was inactive: -4.69%. For `Nc1ccc([As](=O)(O)c2ccc([N+](=O)[O-])cc2)cc1`, the “activity change, negative = inhibition” value was inactive: -0.749%.

— PubChem BioAssay AID2147 (National Center for Advancing Translational Sciences (NCATS), 2009)
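Also: 0% = wells with enzyme and -100% = buffer wells without enzyme; nearly all actives have a fitted effect of over 50% in size.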
